## AlphaSeq binding of Ab-14 light chain variants to a spike HR2 peptide

All variants were tested on one target, the spike HR2 peptide PDVDLGDISGINAS (SARS-CoV-2).

Parent scFv Ab-14: VH joined to VL by the linker GGGGSGGGGSGGGGS. Changes lie in the light chain CDRs alone.
VH: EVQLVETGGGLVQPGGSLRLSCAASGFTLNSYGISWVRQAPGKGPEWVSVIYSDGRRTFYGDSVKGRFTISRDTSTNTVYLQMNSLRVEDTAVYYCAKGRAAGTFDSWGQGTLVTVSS
VL: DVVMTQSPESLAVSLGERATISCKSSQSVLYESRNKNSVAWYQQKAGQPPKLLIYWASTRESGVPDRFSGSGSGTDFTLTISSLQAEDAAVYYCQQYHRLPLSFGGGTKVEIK

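The starting antibody came from a phage panning campaign against this peptide. This is the validation round: designs drawn from the data on random variants, tested in the same kind of assay. Group labels follow the data file (Ctrl: baseline library sampled from a position-specific scoring matrix, with some repeated check sequences; Rand: our label for a block that the file lists under HC and that is probably the random mutants of the ten best first-round binders; En: ensemble of fine-tuned language models; GP: Gaussian process model; HC: hill climbing; Gen: genetic algorithm; Gibbs: Gibbs sampling; a sequence that several methods proposed may carry one label only). The scFvs were displayed on barcoded MATa yeast, the peptide on MATalpha yeast. The frequency of each diploid, read from paired DNA barcodes, reflects how well the two displayed proteins bind. Read counts were normalised to the haploid input and turned into Kd by a linear fit to BCL2-family pairs of known affinity, for each replicate. There are six technical replicates.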

The parent's light chain CDRs are KSSQSVLYESRNKNSVA, WASTRES, QQYHRLPLS; each variant's own CDRs replace them letter for letter.
Scale: log10 of Kd in nM, estimated from mating counts; low values are strong binders.
Averages over replicates are reported, and they cover detected replicates only.
A pair that was not seen in any replicate is written "nd"; this usually means weak binding, but a binder can also be missed.
A sequence measured in both rounds can read differently, since the two assays cover different ranges.

CDR-L1 | CDR-L2 | CDR-L3 | group | log10 Kd (nM), mean | seen in | control signals
MITGAMEQEWSNKNPVA | SATDRAP | QSYFRLPLM | En_Gibbs | 0.88 | 6 of 6 | 3 of 18
MMSQVTGLGQRHRNNVA | QTSTRED | QQYDHLPLI | En_Gen | 0.77 | 6 of 6 | 0 of 18
TLTQVQGMESHNANSVA | DLSTRGS | QQYHRLPLS | En_HC | 0.25 | 6 of 6 | 1 of 18
QIYQAMHTLSQMKDNVA | DVNERGD | QQYFRLPLS | En_Gen | 0.35 | 6 of 6 | 0 of 18
KQSQSVLYESRNKNSVA | DASTRES | QQYMRLPLS | Rand | -0.26 | 6 of 6 | 0 of 18
MISQLYNMGTFAINSVA | QASQRNA | QQYDRLPLE | En_Gen | 1.26 | 6 of 6 | 2 of 18
KSSISYLYESVNTNSVA | EASTRES | QQYHRLPLS | GP_HC | 0.35 | 6 of 6 | 0 of 18
KIGGVTNGISRIKNSVA | EQSTRED | QQYNRLPLS | En_HC | 0.31 | 6 of 6 | 0 of 18
KLSQSQWYESRNSNSVA | NASNRES | QQYHRLPLS | GP_Gibbs | -0.18 | 6 of 6 | 1 of 18
KISQSVLYESRNKNSVA | WASQRES | QQYHRLPLS | Ctrl | 0.68 | 6 of 6 | 0 of 18
KVSKSVLFESRNKNSVA | NASTRES | QQYHRLPLS | GP_HC | 0.62 | 6 of 6 | 0 of 18
KLSQSQLYESRNKNSVA | EAHHREH | QQYHRLPLS | GP_Gibbs | -0.15 | 6 of 6 | 1 of 18
KSPQSVPYESRNKNSFA | GASTRES | QQYHRLPLS | Ctrl | 0.82 | 6 of 6 | 0 of 18
KFFQSQLYEQRNQNSVA | SASYRLS | QQYHRLPLS | GP_Gibbs | 1.31 | 6 of 6 | 0 of 18
LISSVWDYGSRNYNSVA | QTSTREE | QQYDRLPLE | En_HC | 1.29 | 2 of 6 | 0 of 18
KLHAYTLGEKSANSSIA | EKSYRAI | QQYGRLPLC | En_Gibbs | 1.66 | 6 of 6 | 2 of 18
KSSQSELYESRNFNSVA | GASTRES | QQYHRLPLS | GP_HC | 0.18 | 6 of 6 | 0 of 18
KLSQVTHSEHRNKNSIA | EMVTREK | QQYDRLPLS | En_HC | 2.07 | 6 of 6 | 2 of 18
KLMQSVLYESRNKNSVA | HASLRES | QQYHRLPLS | GP_HC | 0.63 | 6 of 6 | 0 of 18
KLMGSMLYEQRMKNSVA | QASHRMS | QQYHRLPLS | GP_Gibbs | 1.17 | 6 of 6 | 0 of 18
ALGDVTRMESNKKNSIA | DMSNRAS | QQYHRLPLS | En_HC | 1.30 | 6 of 6 | 0 of 18
KSGQGVLYESRNKNSVA | GSSTRES | QQYHRLPLS | GP_HC | 0.13 | 6 of 6 | 0 of 18
KLSQSMLYEERNKNNVA | SASHREH | QQYHRLPLS | GP_Gibbs | -0.27 | 6 of 6 | 0 of 18
TIAQSMLYLSNLKNSIA | QAETREP | QQYHRLPIS | En_HC | 1.15 | 6 of 6 | 0 of 18
KFSQSWLYESRNFWSVA | GASHRES | QQYHRLPLS | GP_HC | 0.28 | 6 of 6 | 1 of 18
KLMQSVLYESRNKNSVA | NASTRES | QQYHRLPLM | GP_Gen | 0.26 | 6 of 6 | 3 of 18
KVSWEDLLQSRNKGQVA | EASTRES | QQYHRLPLS | GP_Gibbs | 0.61 | 6 of 6 | 1 of 18
KSSQSVLYESRNHNSVA | WASTPES | QQYHRLPVS | Ctrl | nd | 0 of 6 | 0 of 18
MISESVMYESRNRNSVA | DNSTRED | QCYDRLPLS | En_HC | 1.96 | 6 of 6 | 0 of 18
KLMQSDLYESRNQNNVA | DASTRMS | QQYHRLPLS | GP_Gibbs | -0.13 | 6 of 6 | 3 of 18
MLPESLPQQQTNVNAVA | GAQHTAV | QQYGRLPLT | En_Gibbs | 0.41 | 6 of 6 | 2 of 18
KIQQSVLYESRNKNSVA | NASTRES | QQYHRLPLS | GP_Gen | -0.28 | 6 of 6 | 0 of 18
KFEQSWLYESRNKNSVA | NASQRES | QQYHRLPLS | GP_Gen | -0.35 | 6 of 6 | 0 of 18
FIDGNYYDKYQASNSIA | DEAHIRA | QQYDLLPLS | En_Gibbs | nd | 0 of 6 | 0 of 18
TISMSVNMTSHGRNSVA | QAEMRES | QQYDRLPLS | En_HC | 1.41 | 6 of 6 | 0 of 18
HITMGMYVAGRHSHSIA | QAETREK | QQYDRLPLS | En_Gen | 0.74 | 6 of 6 | 0 of 18
KVSQSTLYEDGNSNSVA | NASVRES | QQYHRLPLS | GP_Gibbs | -0.30 | 6 of 6 | 0 of 18
TISGMTNQAQMKSNSVA | NVTLRPD | QQYHRLPLS | En_Gen | 1.05 | 6 of 6 | 2 of 18
HSSPSVQYESRNKNSVA | NASTRES | QQYHRLPLS | GP_HC | -0.10 | 6 of 6 | 1 of 18
MIDMGEAPNGQQTSSIA | QGHLKAE | QQYYRLPLC | En_Gibbs | 0.40 | 6 of 6 | 0 of 18
KSSQSVLTESRNKNSVN | QASTRES | QQYHRLPLS | Ctrl | 2.97 | 1 of 6 | 1 of 18
KSSQSVLYESRDKNSVA | HASTRES | QQYARLPLS | Ctrl | 0.52 | 6 of 6 | 1 of 18
KSSQSVLKESRNGNSVA | WASTRES | QQYHRLPLS | Ctrl | 2.83 | 1 of 6 | 0 of 18
KISQTFNVGTKNKNSLA | EMSTRGF | QDYYRLPLS | En_HC | 2.56 | 6 of 6 | 1 of 18
MVTQMAMTGMMSKRSVA | NAEMRAD | QQYHRLPFI | En_Gen | 0.34 | 6 of 6 | 0 of 18
NISQMIFMETKNVNNVA | QTSTRES | QDYHRLPLS | En_HC | 0.34 | 6 of 6 | 1 of 18
HLSMLTHVEMGTKNNVA | QMETREE | QQYDRLPLS | En_Gen | 0.08 | 6 of 6 | 2 of 18
KLSQSVLYESRNKNNVA | GASTRCS | QQYHRLPLS | GP_Gen | 1.27 | 6 of 6 | 0 of 18
HASPSVAYESRNKNSVA | NASTREQ | QQYHRLPLS | GP_HC | -0.16 | 6 of 6 | 0 of 18
KLSQSPLYESRNKNSVA | DASTRES | QQYHRLPLS | GP_Gen | -0.26 | 6 of 6 | 3 of 18
KLEGSWLYESRNKNSVA | NASTRES | QQYHRLPLS | GP_Gen | 0.11 | 6 of 6 | 0 of 18
KLQSLELYESRWKNSVA | SASTRES | QQYHRLPLS | GP_Gibbs | 0.69 | 6 of 6 | 1 of 18
KSSISYLYESMNTNSVA | EASTRES | QQYHRLPLS | GP_HC | 1.23 | 6 of 6 | 0 of 18
KSQQSQEYESRNKNSVA | HASTRED | QQYHRLPLS | GP_HC | -0.14 | 6 of 6 | 1 of 18
KLYASTMLESHDKNSIA | DLSTRGN | QQYHRLPLS | En_HC | 0.39 | 6 of 6 | 1 of 18
KLRQQTLYETRNANSVA | SASTREE | QQYHRLPLS | GP_HC | 0.23 | 6 of 6 | 0 of 18
RLQADDNGYEGMRNNVA | DGGMVRM | QQYARLPLM | En_Gibbs | 0.41 | 6 of 6 | 1 of 18
KIGATLNMLEHKQNNVA | DLVERGN | QQYFRLPLS | En_Gen | 0.02 | 6 of 6 | 1 of 18
KFSQSEDYESRNKNSVA | NAQTRMS | QQYHRLPLS | GP_Gibbs | -0.31 | 6 of 6 | 1 of 18
KSSQSVWNESRNKNSVA | WASTRES | QQYHRLPLS | Ctrl | 1.64 | 6 of 6 | 0 of 18
TLSDTVMQGSYYRNSVA | QESTRAD | QQYHHLPLS | En_HC | 0.17 | 6 of 6 | 1 of 18
MISQVMNTLTRNGNNVA | DLQEREK | QQYFRLPLS | En_Gen | 0.97 | 6 of 6 | 0 of 18
KSSQSVLYESDNKNSVA | WASTRTS | QQDHQLPLS | Ctrl | nd | 0 of 6 | 0 of 18
NVSIEPYEGTRYWEAVA | DHSQRNN | QQYDQLPLS | En_Gibbs | 2.65 | 3 of 6 | 0 of 18
MISDMGLHDSRMQNSVA | NNSTREA | QQYERLPLS | En_HC | 2.20 | 3 of 6 | 0 of 18
KITGMWTFESHNRNNIA | EESTRED | QSYHRLPLS | En_HC | 0.61 | 6 of 6 | 1 of 18
QMYPFGLAKGEGSNNVA | HVSTRAL | QQYFQLPLV | En_Gibbs | 0.22 | 6 of 6 | 0 of 18
KLQQMWLYGSRNKNSVA | NASQREE | QQYHRLPLS | GP_Gibbs | 0.04 | 6 of 6 | 2 of 18
KISFNSLIESKNLNSVA | EMTTREY | QDYDRLPLS | En_HC | 2.98 | 6 of 6 | 0 of 18

The closing 10 entries, repeated:

CDR-L1 | CDR-L2 | CDR-L3 | group | log10 Kd (nM), mean | seen in | control signals
KSSQSVWNESRNKNSVA | WASTRES | QQYHRLPLS | Ctrl | 1.64 | 6 of 6 | 0 of 18
TLSDTVMQGSYYRNSVA | QESTRAD | QQYHHLPLS | En_HC | 0.17 | 6 of 6 | 1 of 18
MISQVMNTLTRNGNNVA | DLQEREK | QQYFRLPLS | En_Gen | 0.97 | 6 of 6 | 0 of 18
KSSQSVLYESDNKNSVA | WASTRTS | QQDHQLPLS | Ctrl | nd | 0 of 6 | 0 of 18
NVSIEPYEGTRYWEAVA | DHSQRNN | QQYDQLPLS | En_Gibbs | 2.65 | 3 of 6 | 0 of 18
MISDMGLHDSRMQNSVA | NNSTREA | QQYERLPLS | En_HC | 2.20 | 3 of 6 | 0 of 18
KITGMWTFESHNRNNIA | EESTRED | QSYHRLPLS | En_HC | 0.61 | 6 of 6 | 1 of 18
QMYPFGLAKGEGSNNVA | HVSTRAL | QQYFQLPLV | En_Gibbs | 0.22 | 6 of 6 | 0 of 18
KLQQMWLYGSRNKNSVA | NASQREE | QQYHRLPLS | GP_Gibbs | 0.04 | 6 of 6 | 2 of 18
KISFNSLIESKNLNSVA | EMTTREY | QDYDRLPLS | En_HC | 2.98 | 6 of 6 | 0 of 18

In the paper, a design with two or fewer of six values counts as a poor binder.
Empty control strains, which show no peptide, gave a signal in 4% of pairings with all light chain designs; the median was 2.64 and 95% of these signals were weaker than 1.59. No background was subtracted. The control count says in how many pairings with the empty strains this scFv gave a signal.
The parent sequence was in this pool as ten entries: three were never detected, three once, and four in most replicates, with averages from 0.34 to 2.37.

The measurements come from Li et al. 2023 (doi:10.1038/s41467-023-39022-2) through the FLAb antibody collection.